Earlier results, collected in patent publication US12102640B2, “Use of dopamine and serotonin receptor antagonists for treatment in a subject with retinal degeneration” (United States Government as represented by the Department …, priority 2015, dated 2024).

Sequences of proteins named here, by UniProt entry; tags and fusion partners are left off.
UniProt P21917, whole entry: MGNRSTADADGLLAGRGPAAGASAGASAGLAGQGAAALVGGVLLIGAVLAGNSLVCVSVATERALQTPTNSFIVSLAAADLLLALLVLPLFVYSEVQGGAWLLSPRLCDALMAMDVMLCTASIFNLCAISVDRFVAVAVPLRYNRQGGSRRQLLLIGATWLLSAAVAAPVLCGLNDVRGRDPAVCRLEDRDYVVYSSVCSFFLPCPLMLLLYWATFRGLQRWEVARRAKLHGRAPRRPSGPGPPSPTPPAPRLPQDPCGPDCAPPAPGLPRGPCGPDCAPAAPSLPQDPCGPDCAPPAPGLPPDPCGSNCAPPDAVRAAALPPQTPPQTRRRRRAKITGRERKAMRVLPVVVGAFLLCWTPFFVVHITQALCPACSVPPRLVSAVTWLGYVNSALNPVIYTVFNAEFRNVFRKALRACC

Biological target: D4 receptor (Homo sapiens, UniProt P21917)
Settings: cited from earlier work

Cl.Cl.Cl.Clc1ccc(N2CCN(Cc3c[nH]c4ncccc34)CC2)cc1 [L-745,870, 3-(4-[4-Chlorophenyl]piperazin-1-yl)-methyl-1-H-pyrrolo[2,3-b]pyridinetrihydrochloride]
selectivity among dopamine D2-like receptors: selective for D4 receptor
